## Measured affinities in a library of Ab-14 heavy chain variants

Data: MIT Lincoln Laboratory AlphaSeq set, Engelhart et al. 2022, doi:10.1038/s41597-022-01779-4, as distributed in FLAb.

Antigen: PDVDLGDISGINAS, a 14-residue peptide of the SARS-CoV-2 spike HR2 region.

Each scFv is VH, three GGGGS repeats, VL, as in the parent Ab-14, and differs from it in the CDRs of the heavy chain only.
VH: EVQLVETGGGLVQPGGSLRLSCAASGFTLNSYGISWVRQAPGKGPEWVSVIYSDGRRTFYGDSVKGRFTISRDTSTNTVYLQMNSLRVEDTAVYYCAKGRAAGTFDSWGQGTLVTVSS
VL: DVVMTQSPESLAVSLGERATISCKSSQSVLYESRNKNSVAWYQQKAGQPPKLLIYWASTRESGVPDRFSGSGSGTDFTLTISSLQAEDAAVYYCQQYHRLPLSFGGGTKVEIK

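The parent was found by panning a naive human phage display library on the peptide. AAYL49 was designed without a model: most single CDR substitutions and a random sample of double and triple ones. In AlphaSeq, yeast of one mating type display the scFv and yeast of the other type display the target. Pairs that bind mate more often; barcode pairs of the diploids are counted by sequencing. A regression on co-assayed BCL2-family reference pairs converts the normalised counts of each replicate to an apparent Kd. There are three technical replicates.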

Substitutions are numbered in sequence along the VH above, starting at 1 (not Kabat). The read-out is the apparent dissociation constant on a log10 scale (nM): the lower, the stronger. The mean shown is taken over the replicates in which the pair was detected. A pair that was not seen in any replicate is written "no signal"; this usually means weak binding, but a binder can also be missed. For reference, the parent read 0.65 as the reference entry and 4.11 (one replicate of three) as a member of this library. Nonspecific signal, from three strains lacking the peptide, appeared in 15% of pairings of library AAYL49, centred on 4.06 (5% of these signals below 2.83); values are not corrected for it.

| # | changes | log10 Kd (nM), mean | detected |
|---|---|---|---|
| 1 | T28L Y60N | 3.98 | 1 of 3 |
| 2 | L29K S35K T104L | no signal | 0 of 3 |
| 3 | G55V S63D A101Q | 4.39 | 1 of 3 |
| 4 | T28V I34N V64N | 4.76 | 1 of 3 |
| 5 | F27H R100Y A101I | 2.90 | 3 of 3 |
| 6 | G55D G61N R100A | 4.74 | 2 of 3 |
| 7 | L29F T58C G99T | 3.23 | 1 of 3 |
| 8 | N30I R56I R57K | no signal | 0 of 3 |
| 9 | G33V G55A Y60G | no signal | 0 of 3 |
| 10 | Y52V K65L F105D | 3.97 | 1 of 3 |
| 11 | L29Q K65H A101Q | no signal | 0 of 3 |
| 12 | L29I A102T S107I | no signal | 0 of 3 |
| 13 | V50H D54E G55F | no signal | 0 of 3 |
| 14 | K65H F105G | 3.19 | 1 of 3 |
| 15 | T58Y G61S D106A | 4.55 | 2 of 3 |
| 16 | Y52M F105V S107C | no signal | 0 of 3 |
| 17 | L29T I34E R57A | no signal | 0 of 3 |
| 18 | D54Q S63Q K65C | 4.16 | 1 of 3 |
| 19 | F27V R57S T104L | no signal | 0 of 3 |
| 20 | Y52G R100H F105T | 3.92 | 2 of 3 |
| 21 | F27C S53L A102D | 3.37 | 1 of 3 |
| 22 | F59L V64F F105S | 4.57 | 1 of 3 |
| 23 | T28W S35Y D54T | 3.61 | 1 of 3 |
| 24 | S31R T58V K65E | 2.80 | 3 of 3 |
| 25 | I51E T58W | no signal | 0 of 3 |
| 26 | T28M S53Q G103M | 4.98 | 2 of 3 |
| 27 | S35K S53N S107V | no signal | 0 of 3 |
| 28 | F27Y T28R S63L | 3.11 | 3 of 3 |
| 29 | V64L A102P F105H | 6.59 | 1 of 3 |
| 30 | T28N D106K S107R | no signal | 0 of 3 |
| 31 | N30V G55L G103D | no signal | 0 of 3 |
| 32 | S31Q G99N | -0.07 | 3 of 3 |
| 33 | Y32C T58H G61K | 2.43 | 3 of 3 |
| 34 | V64M S107G | 4.55 | 2 of 3 |
| 35 | G26R F27H S107M | 1.28 | 3 of 3 |
| 36 | S35G S53N T58R | no signal | 0 of 3 |
| 37 | N30D T58K G103C | 4.29 | 1 of 3 |
| 38 | V50M I51M R56K | 3.47 | 1 of 3 |
| 39 | F27K G33N D62V | no signal | 0 of 3 |
| 40 | L29M V50S D54E | no signal | 0 of 3 |
| 41 | G61L R100K G103V | no signal | 0 of 3 |
| 42 | V50K A101T S107H | no signal | 0 of 3 |
| 43 | I34M D106Q | no signal | 0 of 3 |
| 44 | T28I I51Q T58N | 4.63 | 2 of 3 |
| 45 | S53W G55C A101I | no signal | 0 of 3 |
| 46 | G33N I51F S107V | 3.26 | 2 of 3 |
| 47 | I51S G103D S107R | no signal | 0 of 3 |
| 48 | V50F D54N D62K | no signal | 0 of 3 |
| 49 | Y52P R57Q T104D | no signal | 0 of 3 |
| 50 | S31Q S35M D54F | 5.11 | 1 of 3 |
| 51 | G33I G103D | 3.93 | 1 of 3 |
| 52 | S31F G55C A101K | no signal | 0 of 3 |
| 53 | N30C Y60C D106M | 4.05 | 2 of 3 |
| 54 | L29P Y32W S53V | no signal | 0 of 3 |
| 55 | I34D R57M T104K | no signal | 0 of 3 |
| 56 | T28D Y52H T58M | 1.48 | 3 of 3 |
| 57 | F27S G55V D62I | no signal | 0 of 3 |
| 58 | N30H F59T A102K | 2.93 | 1 of 3 |
| 59 | L29T S31N D54G | 4.35 | 3 of 3 |
| 60 | G26W T58K A101C | 1.72 | 2 of 3 |
| 61 | I51K K65D G103A | 3.81 | 1 of 3 |

Repeated from above, the 7 best binders with a signal in all replicates:

| changes | log10 Kd (nM), mean | detected |
|---|---|---|
| S31Q G99N | -0.07 | 3 of 3 |
| G26R F27H S107M | 1.28 | 3 of 3 |
| T28D Y52H T58M | 1.48 | 3 of 3 |
| Y32C T58H G61K | 2.43 | 3 of 3 |
| S31R T58V K65E | 2.80 | 3 of 3 |
| F27H R100Y A101I | 2.90 | 3 of 3 |
| F27Y T28R S63L | 3.11 | 3 of 3 |